# In article PMC7603008 (Materials, 2020):
# Tested on: hDPCs transplanted into immunocompromised mice
# Assay: Ex vivo subcutaneous transplantation of hDPCs with HA/TCP into immunocompromised mice
# Assay type: in vivo
# Conditions: 12 weeks
# Procedure: Human root segments (<5 mm in thickness) were prepared from extracted human teeth after pulp tissues were removed according to our previously reported protocol. Human DPCs (2 × 10^6) were mixed with hydroxy apatite/tricalcium phosphate (HA/TCP) ceramic powder (Zimmer, Warsaw, IN, USA) alone or with Cpne7-DP (10 µg) in an 0.5% fibrin gel and then transplanted subcutaneously into immunocompromised mice (NIH-bg-nu-xid; Harlan Laboratories, Indianapolis, IN, USA) for 6 or 12 weeks. Dentin/pulp-like tissue formation in the emptied root canal space was evaluated after mixing hDPCs (2 × 10^6) with Cpne7-DP (10 µg) in a 0.5% fibrin gel and inserting the mixture into emptied root canal space of the human root segments for 6 weeks. Harvested samples were fixed in 4% in paraformaldehyde, decalcified in 10% EDTA (pH 7.4), embedded in paraffin, and stained with hematoxylin and eosin (H&E) (Vector Laboratory, Burlingame, CA, USA), Masson’s Trichrome Stain (Polysciences, Warrington, PA, USA), or processed for immunohistochemical analysis. For immunohistochemistry, the sections were incubated overnight at 4 °C with rabbit polyclonal DSP and BSP produced, as described previously at a dilution of 1:150. Biotin-labeled goat anti-rabbit IgG (Vector Laboratory) was incubated with the sections at room temperature for 30 min, which were then reacted with the avidin-biotin-peroxidase complex (Vector Laboratory). Signals were converted using a diaminobenzidine kit (Vector Laboratory). Nuclei were stained with hematoxylin.
# Samples were fixed in 0.1 M cacodylate buffer (pH 7.3) containing 2.5% glutaraldehyde for 30 min and in 0.1 M cacodylate buffer (pH 7.4) containing 1% osmium tetroxide for 1 h. Samples were then rapidly dehydrated through an ethanol gradient. After sputter coating with gold, samples were observed under a scanning electron microscope (S-4700, HITACHI, Tokyo, Japan).
substance,measurement,setting,value
rBMP2: recombinant bone morphogenetic protein 2,BSP immunohistochemical staining of mineralized tissue,HA/TCP transplants,strong BSP
same,DSP immunohistochemical staining of mineralized tissue,HA/TCP transplants,much weaker DSP expression
same,Tissue formed by transplanted hDPCs,"hDPCs with HA/TCP in 0.5% fibrin gel, subcutaneous in immunocompromised mice, H&E, Cpne7-DP 10 µg",typical bone-like structure
